pIC50: −log10 of the molar value. Where two headings read alike, the source gives them in different places.
Key:
NTMT1 = biological target: T1, NTMT1 (Homo sapiens, UniProt Q9BV86); details: for pIC50: NTMT1 inhibition; for fold reduction in inhibition: fluoride or nitro instead of hydroxyl at the meta position
T1 sequence (Q9BV86 1-222): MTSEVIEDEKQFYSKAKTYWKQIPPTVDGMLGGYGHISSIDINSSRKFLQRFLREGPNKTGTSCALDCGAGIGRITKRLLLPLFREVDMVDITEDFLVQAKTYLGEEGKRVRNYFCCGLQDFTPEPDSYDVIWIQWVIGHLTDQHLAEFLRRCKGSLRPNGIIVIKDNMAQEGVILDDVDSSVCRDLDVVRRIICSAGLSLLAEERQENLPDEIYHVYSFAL

[1] = system: me3-RCC1 and me3-SET in HEK293 cells; assay: cellular N-methylation level study; format: cell-based; details: read-out: approximate IC50
[2] = system: other methyltransferases including PKMTs, PRMTs, and DNA methyltransferases
[3] = system: me3-RCC1 and me3-SET in HEK293 cells; details: 1 μM; cited from earlier work

Compound: O=C(NCc1csc(-c2ccc(F)cc2)n1)O[C@@H]1CN2CCC1CC2 [Compound 11, (S)-quinuclidin-3-yl ((2-(4-Fluorophenyl)thiazol-4-yl)methyl)carbamate]
- NTMT1 inhibition (in words) (NTMT1): losing the inhibitory activity even at 100 μM

Compound: CC(C)(NC(=O)O[C@@H]1CN2CCC1CC2)c1csc(I)n1 [Compound 15, (S)-quinuclidin-3-yl (2-(2-Iodothiazol-4-yl)propan-2-yl)carbamate]
- fold loss of potency compared to venglustat (NTMT1; NTMT1 IC50): about 100 fold

Compound: CNc1nc(C(C)(C)NC(=O)O[C@@H]2CN3CCC2CC3)cs1 [Compound 18, (S)-quinuclidin-3-yl (2-(2-(Methylamino)thiazol-4-yl)propan-2-yl)carbamate]
- fold loss of potency compared to venglustat (NTMT1; NTMT1 IC50): about 100 fold

Compound: CC(C)c1nc(C(C)(C)NC(=O)O[C@@H]2CN3CCC2CC3)cs1 [Compound 21, (S)-quinuclidin-3-yl (2-(2-Isopropylthiazol-4-yl)propan-2-yl)carbamate]
- fold loss of potency compared to venglustat (NTMT1; NTMT1 IC50): over 150 fold

Compound: CC(C)(NC(=O)O[C@@H]1CN2CCC1CC2)c1csc(-c2cccc3ccccc23)n1 [Compound 22]
- fold decrease compared to the phenyl ring analogue (NTMT1; NTMT1 IC50): 20 fold

Compound: CC(C)(NC(=O)O[C@@H]1CN2CCC1CC2)c1csc(-c2ccncc2)n1 [Compound 25]
- pIC50 (NTMT1): < 4.00

Compound: CC(C)(NC(=O)O[C@@H]1CN2CCC1CC2)c1csc(-c2ccc(F)nc2)n1 [Compound 31]
- fold loss of potency compared to venglustat (NTMT1; NTMT1 IC50): 3 fold

Compound: CC(C)(NC(=O)O[C@@H]1CN2CCC1CC2)c1csc(-c2cccc(F)c2)n1 [Compound 37]
- pIC50 (NTMT1): 4.49
- fold reduction in inhibition (NTMT1): ~ 50 fold

Compound: CC(C)(NC(=O)O[C@@H]1CN2CCC1CC2)c1csc(-c2cccc([N+](=O)[O-])c2)n1 [Compound 39]
- fold reduction in inhibition (NTMT1): ~ 50 fold

Compound: CC(C)(NC(=O)O[C@@H]1CN2CCC1CC2)c1csc(-c2ccc(F)cc2O)n1 [Compound 44]
- fold less potent than 43 (NTMT1; NTMT1 IC50): 10 fold

Compound: CC(C)(NC(=O)O[C@@H]1CN2CCC1CC2)c1csc(-c2ccc(F)c(O)c2)n1 [GD433]
- pIC50 [1]: > 7.52
- inhibition ([2]; at 100 μM, 40 other methyltransferases): less than 50%
- inhibition ([2]; single dose of 50 μM): did not show significant inhibition

Compound: CC(C)(NC(=O)O[C@@H]1CN2CCC1CC2)c1csc(-c2cncnc2)n1 [YD2160]
- NTMT1 inhibition (in words) (NTMT1): inactive

Compound: CC(C)(NC(=O)O[C@@H]1CN2CCC1CC2)c1csc(-c2ccc(Cl)c(O)c2)n1 [YD2200]
- fold improved potency compared to venglustat (NTMT1; NTMT1 IC50): 5 fold
- pIC50 (NTMT1): 6.96

Compound: CC(C)(NC(=O)O[C@@H]1CN2CCC1CC2)c1csc(-c2ccc(F)cc2)n1 [venglustat, (S)-quinuclidin-3-yl (2-(2-(4-Fluorophenyl)thiazol-4-yl)propan-2-yl)carbamate]
- effect on me3-RCC1 and me3-SET [3]: significantly suppressed
